Measured values taken from patent publication US20190111158A1, “INJECTION COMPOSITION FOR LABELING LESION” (NATIONAL CANCER CENTER, priority 2016, published 2019).

Assays:
[1] = change in syringe pressure (gliding force) according to precipitation of ICG-MAA-HA-2; format: physicochemical
Procedure: Generally, a pressure applied to the syringe with a 26G needle according to the concentration of hyaluronic acid increased from approximately 20 gf (0.1% HA) to 70 gf (1.0% HA). The pressure applied to the syringe increased according to an injection composition other than hyaluronic acid in the injection. In one example, a force of approximately 15 gf was further applied when MAA was present at a concentration of 8 mg/mL.
Therefore, in Experimental Example 3-3, the pressures applied to the syringe when the injection composition to which hyaluronic acid was added was injected immediately after addition of hyaluronic acid and after the injection composition was allowed to stand for 120 minutes to allow the composition to settle were measured, and are listed in the following table.
For reference, in Table 6, (A) lists the pressures when the injection composition was injected immediately, and (B) lists the pressures at the start of injection after the injection composition was allowed to stand for 120 minutes. Also, (C) lists the pressures (forces exerted on a finger, i.e., gliding forces) at an intermediate point of injection after the injection composition was allowed to stand for 120 minutes.

[2] = change in syringe pressure according to precipitation of ICG-MAA-HA-1 (26G needle); format: physicochemical; conditions: HA 0 %
Procedure: In Example 3-3, the pressure (A) applied to the syringe when the injection composition to which hyaluronic acid was added was injected immediately after the addition of HA and the pressure (B) applied to the syringe after the injection composition was allowed to stand for 120 minutes so that the composition settled were measured, and are listed in the following table.
In this case, the syringe equipped with a 26G needle was used to measure a gliding force of the syringe.
In addition, the unit of the gliding force is gf representing gravitational force (1 g=0.0098 N).

[3] = fluorescence value of the ICG-MAA complex when injected; format: in vivo
Procedure: Meanwhile, because the concentrations of MAA and ICG were varied due to in vivo diffusion when MAA and ICG were injected in vivo, it was impossible to determine the exact concentrations of MAA and ICG at the time of injection. However, it was confirmed through experiments that the complexes had the highest fluorescence value when 6.5 μM ICG with respect to 2 mg/mL MAA was injected.

[4] = constant concentration effect: sequential 100 μL injections into tubes, fluorescence signal; format: physicochemical; conditions: MAA 2 mg/mL, 1.5 μM ICG; ICG-MAA no HA, ICG-MAA-HA 0.1% (w/v) HA
[5] = bright-field image of MAA particle distribution with/without HA; format: physicochemical; conditions: 6.5 μM ICG, 2, 4 and 8 mg/mL MAA; ICG-MAA no HA, ICG-MAA-HA 0.5% HA (w/v)
Procedure: An MAA particle distribution was visualized using an optical microscope with a hemocytometer. Each square represents a size of 0.05 mm^2. […] The concentrations of MAA are as follows: FIGS. 4-1 and 4-4: 2 mg/mL; FIGS. 4-2 and 4-5: 4 mg/mL; and FIGS. 4-3 and 4-6: 8 mg/mL.

[6] = suspensibility maintenance time of ICG-MAA-HA injection solution according to HA concentration; format: physicochemical; conditions: HA solvent 0% (simple water for injection), MAA 2 mg/mL
Procedure: To evaluate the usefulness of ICG-MAA-HA as an injection composition, a suspensibility maintenance time of ICG-MAA-HA according to the concentration of HA was measured.
More specifically, the suspensibility maintenance time after preparation of the ICG-MAA-HA injection solution was measured, and the suspensibility maintenance time was measured according to an increasing concentration of HA. Here, the suspensibility defines a suspensibility maintenance time as a reference point of time when a settling region and a floating region are separated based on 20% transmittance of light with 500 nm.
More specifically, as the images of the ICG-MAA-HA injection thus prepared photographed after 30 minutes, FIG. 3(A) is an image of MAA to which 0.1% HA is added, and FIG. 3(B) is an image of MAA to which 0.5% HA is added.

[7] = density of ICG-MAA complex (density of distilled water including the complex, linear regression); format: physicochemical; conditions: for Density of distilled water including the ICG-MAA complex: room temperature
Procedure: The densities of the ICG-MAA complexes were measured.
Because the ICG-MAA complexes were present in the form actually used in an aqueous solution phase, it was difficult to directly measure the densities of the complexes without causing damage to the forms of biological materials, and the like. Therefore, the densities of the ICG-MAA complexes were measured indirectly with reference to a change in density according to concentration.
The density was measured using the prepared ICG-MAA complex including MMA at a concentration of 2 mg/mL and 6.5 μM ICG, and the ICG-MAA densities were measured using the ICG-MAA complexes at concentrations of 20 mg/mL to 200 mg/mL (2 to 20% (w/v), as follows.
More specifically, 20 mL of distilled water was poured into a transparent container at room temperature, and the aforementioned ICG-MAA complex was added thereto to measure a varying density of the distilled water including the ICG-MAA complex. In particular, the varying density according to the concentration of the ICG-MAA complex was measured.
Referring to Table 2, a linear regression equation was obtained through linear regression analysis, and the density when it reached 100% was measured by extrapolation (0.2757*100+1.0064=1.2821).

[8] = change in transmittance at 550 nm according to precipitation of ICG-MAA-HA; format: physicochemical; conditions: HA 0.0 %, MAA 2 mg/mL
Procedure: A change in optical density over time was measured for the injection composition prepared in Example 1. For reference, a change in optical density was measured for an injection composition including 2 mg/mL of MAA.
In addition, transmittance was obtained by measuring the transmittance of visible light using a UV spectrometer (TECAN. Infinite M200PRO).
More specifically, when transmittance was measured at the one quarter point of the height of a transparent container having a size of 1×1×3 cm^3, using a UV spectrometer, in a state in which the injection composition was loaded in the container, transmittance at 550 nm was measured.
In this case, T1 represents transmittance (%) at 550 nm when measured at the one quarter point of the height of a transparent container having a size of 1×1×3 cm^3 in a state in which the prepared injection composition is loaded in the transparent container, and T2 represents transmittance (%) at 550 nm when measured at the one quarter point of the height of a transparent container having a size of 1×1×3 cm^3 after being allowed to stand for 120 minutes in a state in which the prepared injection composition is loaded in the transparent container.

[9] = injection into chicken breast, NIRF imaging; conditions: ICG-MAA-HA 0.5% HA, ICG-MAA no HA
Procedure: (§1) Also, a difference in tissue strength was determined using a chicken breast having typical tissue strength and a chicken gizzard having compact tissue strength. 50 μL of each of ICG-MAA-HA and ICG-MAA was slowly injected 5 times into the chicken breast and chicken gizzard to a depth of 5 mm. An NIRF image was obtained by emitting light from 17 2 mA NIR LEDs having a peak wavelength of 740 nm. The image was photographed and visualized by AVT UniCam viewer software (Allied Vision Technologies) according to the following settings of a camera: Exposure time: 195 ms; Gain: 170; Target grayscale value: 125; and Brightness: 16. It took approximately 2 to 3 minutes to prepare and inject the injections. […] When it was difficult to inject the injection solutions, the syringe was shaken, and the injection solutions were again injected within a short time.
A region into which the ICG-MAA-HA was injected is indicated by a white circle on the bright-field image. The NIRF image was obtained by emitting light from the 17 2 mA NIR LEDs having a peak wavelength of 740 nm. The image was photographed and visualized by AVT UniCam viewer software (Allied Vision Technologies) according to the following settings of a camera: Exposure time: 195 ms; Gain: 170; Target grayscale value: 125; and Brightness: 16.

[10] = near-infrared fluorescence signal intensity of ICG-MAA complexes at various ICG/MAA mixing ratios; format: physicochemical; conditions: for near-infrared fluorescence signal intensity: MAA 11.5 mg/mL
[11] = injection into chicken gizzard, NIRF imaging; conditions: ICG-MAA-HA 0.5% HA, ICG-MAA no HA
Procedure: as §1

[12] = one quarter point of container height

MAA: proteinaceous particle of 10 to 50 μm prepared by heating human serum albumin so that it coagulates
force further applied to the syringe ([1]; MAA 8 mg/mL): approximately 15 gf

ICG-MAA: complex in which indocyanine green is bound to macroaggregated albumin; injection composition without hyaluronic acid
A: pressure applied to the syringe when injected immediately after the addition of HA [2]: 91 gf
B − A [2]: 309 gf
B: pressure applied to the syringe after standing for 120 minutes [2]: 400 gf
ICG concentration with the highest fluorescence value when injected ([3]; with respect to 2 mg/mL MAA): 6.5 µM
ICG concentration with the highest fluorescence value when injected ([3]; with respect to 2 to 4 mg/mL MAA): 6.5 µM
injection of the predetermined amount of ICG-MAA (fluorescence intensities of sequential 100 μL injections) [4]: the predetermined amount of ICG-MAA was not injected
MAA particle distribution in bright-field image (settling) [5]: all the MAA particles had settled
Suspensibility maintenance time [6]: Within 10 minutes
Density of distilled water including the ICG-MAA complex ([7]; ICG-MAA complex 2 % (w/v)): 1.0118 g/mL
Density of distilled water including the ICG-MAA complex ([7]; ICG-MAA complex 4 % (w/v)): 1.0177 g/mL
Density of distilled water including the ICG-MAA complex ([7]; ICG-MAA complex 6 % (w/v)): 1.0228 g/mL
Density of distilled water including the ICG-MAA complex ([7]; ICG-MAA complex 8 % (w/v)): 1.0283 g/mL
Density of distilled water including the ICG-MAA complex ([7]; ICG-MAA complex 10 % (w/v)): 1.0338 g/mL
Density of distilled water including the ICG-MAA complex ([7]; ICG-MAA complex 12 % (w/v)): 1.0395 g/mL
Density of distilled water including the ICG-MAA complex ([7]; ICG-MAA complex 20 % (w/v)): 1.0616 g/mL
settling of the complex dissolved in distilled water ([7]; checked after 20 minutes): a white suspension had settled on the bottom of the container
density of the ICG-MAA complex ([7]; extrapolation of the linear regression equation to 100%): 1.2821 g/mL
|T2 − T1| [8]: 10.12%
T1: transmittance at 550 nm [8, 12]: 77.76%
T2: transmittance at 550 nm after standing for 120 minutes [8, 12]: 87.88%
A: pressure when the injection composition was injected immediately ([1]; HA 0 %): 115 gf
C: pressure (gliding force) at an intermediate point of injection after standing for 120 minutes ([1]; HA 0 %): 120 gf and 110 gf
distribution of the labels in NIRF images [9]: the labels were properly distributed; also recorded: a small amount of the labels were injected
ICG concentration with the highest value of near-infrared fluorescence signal intensity ([10]; 11.5 mg/mL of MAA): 6.5 µM
near-infrared fluorescence signal intensity ([10]; ICG 3.9 (μN)): 931
near-infrared fluorescence signal intensity ([10]; ICG 6.5 (μN)): 979
near-infrared fluorescence signal intensity ([10]; ICG 9.0 (μN)): 942
near-infrared fluorescence signal intensity ([10]; ICG 12.9 (μN)): 915
near-infrared fluorescence signal intensity ([10]; ICG 25.8 (μN)): 563
near-infrared fluorescence signal intensity ([10]; ICG 38.7 (μN)): 366
near-infrared fluorescence signal intensity ([10]; ICG 64.5 (μN)): 244
near-infrared fluorescence signal intensity ([10]; ICG 77.4 (μN)): 182
near-infrared fluorescence signal intensity ([10]; ICG 103 (μN)): 94
near-infrared fluorescence signal intensity ([10]; ICG 258 (μN)): 60
near-infrared fluorescence signal intensity ([10]; ICG 516 (μN)): 20
near-infrared fluorescence signal intensity ([10]; ICG 774 (μN)): 9
near-infrared fluorescence signal intensity ([10]; ICG 1032 (μN)): 4
distribution of the labels in NIRF images [11]: the labels were not properly distributed

Where “and” joins values, the source holds several entries; their conditions need not be identical. Equal values may be shown once. Entries after “also recorded” stand apart in the source; their conditions may differ.
